US10314775B2, “Methods of increasing hair growth and improving hair appearance” (MyMD Pharmaceuticals, Inc., priority 2016, dated 2019)

Amino acid sequences for entries named in this document (tags omitted).
UniProt P21397, whole entry, species assumed: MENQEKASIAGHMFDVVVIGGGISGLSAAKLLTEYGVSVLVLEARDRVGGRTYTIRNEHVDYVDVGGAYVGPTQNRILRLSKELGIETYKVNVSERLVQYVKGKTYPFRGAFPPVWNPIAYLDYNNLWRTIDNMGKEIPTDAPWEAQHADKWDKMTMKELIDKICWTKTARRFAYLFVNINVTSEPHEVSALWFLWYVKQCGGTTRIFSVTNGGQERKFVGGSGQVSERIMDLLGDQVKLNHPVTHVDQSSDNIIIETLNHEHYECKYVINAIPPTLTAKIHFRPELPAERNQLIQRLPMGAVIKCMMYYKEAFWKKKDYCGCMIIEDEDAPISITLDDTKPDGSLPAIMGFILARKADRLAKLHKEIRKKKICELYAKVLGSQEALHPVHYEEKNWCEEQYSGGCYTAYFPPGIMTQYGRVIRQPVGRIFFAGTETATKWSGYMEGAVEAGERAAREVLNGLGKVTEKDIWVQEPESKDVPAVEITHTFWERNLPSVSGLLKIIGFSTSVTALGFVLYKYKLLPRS

Molecular target: T1, MAO-A (Homo sapiens, UniProt P21397)
T1 construct: purchased
Test: MAO-Glo luminescent assay, MAO-A inhibition
Type: biochemical
Details: FIG. 1; compared with myosmine, anatabine, anabasine, nornicotine; clorgyline positive control
Source text: This example describes experiments for determining monoamine oxidase (MAO) inhibition for isomyosmine and other alkaloids. MAOs are enzymes located on the outer membrane of mitochondria and are involved in the catabolism of monoamine neurotransmitters. There are two well-characterized isoenzymes: MAO-A, which predominantly catabolizes serotonin and norepinephrine, and MAO-B, which preferentially catabolizes benzylamine and phenylethylamine. Dopamine and tyramine are metabolized by both isoforms.
To detect the activity of MAO, a luminescent method (MAO-Glo Assay kit, from Promega, Cat # V1401) was used. In this method, a MAO substrate (a derivative of beetle luciferin provided in the kit) is mixed with the compound to be tested (in this case, myosmine and control compounds). Then, the MAO enzymes (either A or B, purchased separately) are added to the mixture and incubated with the reaction for 1 hour at room temperature. The MAO enzymes, if not inhibited by the test compound, will convert the substrate into methyl ester luciferin. Finally, a luciferin detection reagent (provided by the kit) is added (20 minutes at room temperature) to stop the MAO reaction and convert methyl ester luciferin into D-luciferin. […] The luminescent signal is measured and recorded using a luminometer.
Anatabine was obtained from Emerson Resources, Norristown, Pa.

Question: With C#CCN(C)CCCOc1ccc(Cl)cc1Cl [clorgyline, reference compound] as the compound, how does the “inhibiting the enzymatic activity of MAO-A, comparison of curves” value read?
Answer: greatly shifted leftward
